Earlier results on 2 compounds are cited in PubChem BioAssay AID1811 (Shanghai Institute of Organic Chemistry, 2009).

SMILES strings stand for the structures. The list shows a part of the results. Active and inactive are the calls of the source. Unless stated, no cut-off for active and inactive is given here.

The series relates to serine/threonine-protein kinase 6. Put plainly: PubChem AID 1811. To be noted: PDB complex binding affinities from literature.

As to `CO[C@@H](C(=O)N1Cc2[nH]nc(NC(=O)c3ccc(N4CCN(C)CC4)cc3)c2C1)c1ccccc1`, the call was active.

On to `CN1CCN(c2ccc(C(=O)Nc3n[nH]c4c3CN(C(=O)Cc3cccs3)C4)cc2)CC1`, for which the compound was classed as active.
